# Measured affinities in a library of Ab-95 light chain variants

Reference: Engelhart et al. 2022, doi:10.1038/s41597-022-01779-4. File: FLAb, binding data.

The target is the same throughout: PDVDLGDISGINAS, from the HR2 region of SARS-CoV-2 spike.

Ab-95 is the parent antibody, in scFv form: VH, then the linker GGGGSGGGGSGGGGS, then VL. The heavy chain is unchanged in all variants.
VH: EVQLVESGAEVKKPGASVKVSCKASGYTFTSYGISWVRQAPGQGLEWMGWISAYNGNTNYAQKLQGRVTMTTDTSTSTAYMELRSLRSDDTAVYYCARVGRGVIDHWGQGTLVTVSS
VL: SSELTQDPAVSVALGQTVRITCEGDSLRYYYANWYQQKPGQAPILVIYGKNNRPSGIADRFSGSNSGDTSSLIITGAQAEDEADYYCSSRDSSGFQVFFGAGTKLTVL

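In library AAYL52, one, two or three CDR residues were substituted; doubles and triples were drawn at random. The scFvs were displayed on barcoded MATa yeast, the peptide on MATalpha yeast. After mating in shaken culture at 30 °C for 16 h, diploids were selected and their barcode pairs sequenced. Each replicate has its own calibration line, from reference interactions of the BCL2 family. The assay was run in three technical replicates.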

Substitutions are numbered in sequence along the VL above, starting at 1 (not Kabat). Numbers give log10(Kd / nM), so 0 is 1 nM and 3 is 1 µM. Smaller is tighter. Averages over replicates are reported, and they cover detected replicates only. A pair that was not seen in any replicate is written "nd"; this usually means weak binding, but a binder can also be missed. Parent in this assay: reference entry 2.31, copy in this library 2.25. Empty control strains, which show no peptide, gave a signal in 28% of pairings with library AAYL52; the median was 3.91 and 95% of these signals were weaker than 2.90. No background was subtracted.

For D25H+S92G+F98I, the assay gave 2.47 (3 of 3 replicates).
For G24R+G94D+F98R, the assay gave 3.39 (1 of 3 replicates).
For D25C+R28S+V97S, the assay gave 3.61 (2 of 3 replicates).
For R28D+R90Q+V97A, the assay gave 2.52 (3 of 3 replicates).
For S26M+N51F+N52V, the assay gave 3.17 (1 of 3 replicates).
For S26G+S93V+V97T, the assay gave 2.27 (3 of 3 replicates).
For E23H+Y29P+N52M, the assay gave 1.94 (3 of 3 replicates).
For R53W+S89I+R90A, the assay gave 5.41 (1 of 3 replicates).
For S26M+Y29F+S93P, the assay gave 3.68 (2 of 3 replicates).
For R28G+S89M+S93A, the assay gave 2.70 (3 of 3 replicates).
For L27S+K50R, the assay gave 3.59 (3 of 3 replicates).
For L27I+A32H+S88K, the assay gave 5.05 (1 of 3 replicates).
For Y30G+S88P+V97F, the assay gave 1.28 (3 of 3 replicates).
For Y30W+N33C+S93H, the assay gave 4.49 (1 of 3 replicates).
For R28M+N52W, the assay gave 3.40 (3 of 3 replicates).
For Y30A+A32P+F95I, the assay gave 2.72 (3 of 3 replicates).
For E23H+G24M+K50N, the assay gave 1.96 (3 of 3 replicates).
For S26K+S93K+V97T, the assay gave 3.19 (1 of 3 replicates).
For Y31N+N52P+R53H, the assay gave 2.04 (3 of 3 replicates).
For N33G+D91Q+S92N, the assay gave 4.42 (2 of 3 replicates).
For A32S+S55Y+S93I, the assay gave 3.65 (2 of 3 replicates).
For D25A+R28K+Y30D, the assay gave 1.67 (3 of 3 replicates).
For P54N+S55F+S92M, the assay gave 3.09 (3 of 3 replicates).
For N51H+S55E+S88I, the assay gave 3.21 (1 of 3 replicates).
For G24V+S89K+G94W, the assay gave nd (0 of 3 replicates).
For Y30R+A32T+Q96V, the assay gave 3.06 (3 of 3 replicates).
For K50F+S93E+F95E, the assay gave nd (0 of 3 replicates).
For D91E+G94Y+V97D, the assay gave 3.65 (2 of 3 replicates).
For G49R+S55W+R90V, the assay gave 3.95 (1 of 3 replicates).
For R28G+N51F+V97N, the assay gave nd (0 of 3 replicates).
For K50P+N52G, the assay gave 2.18 (3 of 3 replicates).
For N51V+S88T+F95V, the assay gave 4.18 (3 of 3 replicates).
For L27G+Y29I+Q96F, the assay gave 4.48 (3 of 3 replicates).
For N52Q+Q96D+V97C, the assay gave 3.06 (2 of 3 replicates).
For N52A+S92V+Q96N, the assay gave 2.58 (3 of 3 replicates).
For N51R+R53L+D91P, the assay gave nd (0 of 3 replicates).
For S89D+S93W, the assay gave 5.40 (2 of 3 replicates).
For K50V+D91G+S93R, the assay gave 3.49 (3 of 3 replicates).

The last 6 entries again:

changes	log10 Kd (nM), mean	replicates with signal
L27G+Y29I+Q96F	4.48	3/3
N52Q+Q96D+V97C	3.06	2/3
N52A+S92V+Q96N	2.58	3/3
N51R+R53L+D91P	nd	0/3
S89D+S93W	5.40	2/3
K50V+D91G+S93R	3.49	3/3